GALK inh = blocks human galactokinase activity | Potency, µM (highest dose often 57.5 µM), for inactives: at the top dose activity change, negative = inhibition, actives largely listed as inhibitors | Purified GALK, Kinase-Glo residual ATP luminescence | AID 1868 | actives 0.007% (n = 270,000); further: potency means the concentration at half of the fitted maximal effect; on the % scale 0 is the no-effect control and ±100 the full control effect
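5 nM enzyme, 35 uM ATP, 100 uM galactose, 20 mM HEPES pH8.0, 5 mM MgCl2; 1 h RT; residual ATP by Kinase-Glo Plus luminescence, qHTS format.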
Giardia kill = Giardia lamblia killing; Giardia lamblia trophozoite viability; activity change, % at 7.66 µM, hits read low; actives 0.15% (n = 340,000); in the data active means activity change below about -80%; inconclusive means between about -30% and that limit;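 further: parasites exposed to compound for two days anaerobically before the ATP read; on the % scale 0 is the no-effect control and ±100 the full control effect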
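Giardia lamblia trophozoites (100 cells/well) were incubated with compounds for 48 h at 37 deg C under anaerobic conditions. Viability was read as ATP content by one-step luminescence after 15-30 min at room temperature.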
uPA generation = inhibitors of cell surface uPA generation | cell surface uPA generation assay, qHTS | Potency, µM (series often up to 38.3 µM), for inactives: at the top dose activity change, negative = inhibition, actives largely listed as inhibitors | actives 0.31% (n = 330,000); active means well fitted inhibition curve with a large enough effect; inconclusive means small, poorly fitted or top-dose-only effect; inactive means no such curve, though single readings can be large or run the other way; tested in mouse RAW 264.7 cells; further: potency means the concentration at half of the fitted maximal effect; on the % scale 0 is the no-effect control and ±100 the full control effect; nearly all actives have a fitted effect of over 55% in size
B2AR arrestin = recruits beta-arrestin to the human beta2-adrenergic receptor; P07550; beta-arrestin recruitment to beta2AR, cell-based reporter; Potency, µM (series often up to 46.1 µM), inactives show top-dose activation, most hits filed as activators; actives 0.02% (n = 330,000); AID 492947;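 further: potency means the concentration at half of the fitted maximal effect; 0% = DMSO controls and full agonism = EC100 isoproterenol or metaproterenol; nearly all actives have a fitted effect of over 65% in size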
miR-21 reporter = miR-21 reporter, rising signal | HeLa miR-21 FLuc reporter, luciferase, 48 h | Potency, µM (highest dose often 38.3 µM), for inactives: at the top dose reporter change, positive = more light | 340,000 tested, under 10 active | AID 2288; active = well fitted rising curve with a large enough effect; inconclusive = small, poorly fitted or top-dose-only effect; inactive = no such curve, though single readings can be large or run the other way;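 further: % of control where 0% means no effect; miR-21 action dims this reporter so a rising signal means less miR-21 action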
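HeLa cells endogenously expressing miR-21, stably carrying CMV-driven firefly luciferase with a downstream miR-21 binding site, 2000 cells/well. Titrations up to approximately 40 uM, 48 hours; luciferase luminescence read.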
FBPA coupling cs = coupling enzyme interference in Giardia aldolase counter-screen; coupling enzyme system counterscreen, AmpLite Red fluorescence; activity change, negative = inhibition, % at 58.2 µM, hits read low; actives 0.67% (n = 290,000); AID 2472; in the data active means activity change below about -30%; further: on the % scale 0 is the no-effect control and ±100 the full control effect
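Activity here indicates interference with the coupling reaction, not aldolase inhibition. Compounds at 57.5 uM final met coupling enzymes for 10 min at RT; substrate and AmpLite Red detection followed, with a 525/598 nm fluorescence read after 20 min.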
* hit, by the source's call; ? = inconclusive; . = no result given. Only some compounds are listed: those with a hit (about 0.92% of all), similar ones and a draw of the others. Unless noted, the call rests on the fitted dose curve; in most records, active means well fitted curve in the direction sought with a large enough effect; inconclusive means small, poorly fitted or top-dose-only effect, or another doubt; inactive means no such curve, though single readings can be large; an effect the other way counts as inactive or inconclusive.

Short forms – A = GALK inh; B = Giardia kill; C = uPA generation; D = B2AR arrestin; E = miR-21 reporter; F = FBPA coupling cs
1. Oc1ccc(/C=N/Nc2cc(N3CCCC3)nc(N3CCCC3)n2)cc1
  A: 5.7%	B: -1.0	C: 12.4%	D: 0.1%	E: 4.1%	F: -44.4*
2. COc1ccccc1C1=Nn2c(nnc2-c2ccccc2C)SC1
  A: .	B: .	C: .	D: .	E: .	F: -6.0
3. O/N=C1\CCCc2oc3c(c21)CCCC3
  A: 2.0%	B: 23.7	C: -0.4%	D: -0.3%	E: -4.0%	F: -30.9*
4. Cc1c(C(=O)O)oc2c1/C(=N\O)CCC2
  A: -1.4%	B: 3.1	C: 3.9%	D: -0.9%	E: -5.2%	F: 2.7
5. CCc1ccc(-n2c(=O)c3sc4ccccc4c3n(CC(=O)NCc3ccccc3)c2=O)cc1
  A: .	B: .	C: .	D: .	E: 3.7%	F: .
6. O=C(Nc1cccc(Cl)c1)OCCOC(=O)Nc1cccc(Cl)c1
  A: .	B: 1.9	C: -7.9%	D: .	E: .	F: .
7. O=C(Nc1cccc(Cl)c1)OCC#CCCl
  A: .	B: .	C: .	D: .	E: .	F: -38.3*
8. C[n+]1c2n(c3ccccc31)N=C(c1ccc(Cl)cc1)CS2
  A: 0.5%	B: -11.4	C: -13.3%	D: 0.5%	E: 24.1%	F: 0.1
9. COc1ccc(C2=Nn3c([n+](C)c4ccccc43)SC2)cc1
  A: 0.3%	B: 3.6	C: 3.55µM*	D: 0.1%	E: ?	F: 1.1
10. O=C(O/N=C1\CCCCC1c1ccc([N+](=O)[O-])cc1[N+](=O)[O-])c1c(F)cccc1F (stereo unspecified)
  A: -0.5%	B: -6.5	C: 5.3%	D: 0.0%	E: -2.6%	F: -30.9*
11. O=[N+]([O-])c1ccc(C2CCCC/C2=N/OCc2ccccc2F)c([N+](=O)[O-])c1 (stereo unspecified)
  A: -1.1%	B: 12.1	C: 8.1%	D: -0.4%	E: 0.0%	F: -0.1
12. CC1(C)CCC(=O)c2ccccc21
  A: .	B: 19.0	C: 6.2%	D: .	E: .	F: .
13. CC1(C)CCC2=C(O1)c1ccccc1C(=O)C2=O
  A: .	B: .	C: .	D: .	E: .	F: -55.5*
14. CC(C)(C)CNc1nc(C#N)nc(Nc2ccccc2)n1
  A: .	B: .	C: .	D: .	E: .	F: 2.1
15. COCCCNC(=O)Cc1c(C)c2c(cc(C)c3c(C(C)(C)C)coc32)oc1=O
  A: .	B: 6.4	C: 0.282µM*	D: 3.9%	E: 9.5%	F: -0.3
16. COCCNC(=O)Cc1c(C)c2c(cc(C)c3c(C)coc32)oc1=O
  A: -2.3%	B: -11.8	C: 7.6%	D: -0.1%	E: -1.0%	F: -0.3
17. CN1c2ccccc2C(C)(C)C12C=Nc1c(ccc3ccccc13)O2 (stereo unspecified)
  A: -1.5%	B: 11.0	C: -2.8%	D: -0.6%	E: 8.0%	F: -78.1*
18. CC(=O)Nc1nonc1-c1nc2ccccc2n1Cc1ccccc1Br
  A: .	B: .	C: .	D: .	E: 5.4%	F: .
19. Cc1ccc2sc(NNC(=O)c3cc(=O)c4ccccc4o3)nc2c1C
  A: -0.3%	B: 10.8	C: 12.5%	D: 0.2%	E: -34.5%	F: -47.1*
20. Cc1cccc(N2CCN(C(=O)CCNS(=O)(=O)c3ccc4c(c3)CCN4C(=O)C3CC3)CC2C)c1 (stereo unspecified)
  A: .	B: .	C: .	D: .	E: 14.0%	F: .
21. CC1=C(CC(=O)c2ccccc2)C(=O)c2ccccc2C1=O
  A: -8.6%	B: -11.3	C: -7.3%	D: -0.6%	E: 27.1%	F: -35.6*
22. COC(=O)CN1C(=O)S/C(=C/c2ccc(N3CCCCC3)o2)C1=O
  A: -0.7%	B: 5.2	C: -9.5%	D: -1.0%	E: -11.8%	F: -42.9*
23. CCCN1C(=O)S/C(=C\c2ccc(N3CCOCC3)cc2C)C1=O
  A: -1.1%	B: .	C: .	D: 0.3%	E: -35.4%	F: -2.6
24. CCCN1C(=O)S/C(=C\c2ccc(N3CCOCC3)o2)C1=O
  A: 7.6%	B: 6.7	C: -17.7%	D: 0.7%	E: ?	F: -49.6*
25. CCCN1C(=O)S/C(=C/c2ccc(N3CCOCC3)o2)C1=O
  A: -1.8%	B: 11.9	C: -6.7%	D: 5.4%	E: -23.0%	F: -48.2*

One compound at a time, from the list above.
Listed for `O=[N+]([O-])c1ccc(C2CCCC/C2=N/OCc2ccccc2F)c([N+](=O)[O-])c1` (stereo unspecified) → GALK inh = -1.1%; Giardia kill = 12.1; uPA generation = 8.1%; B2AR arrestin = -0.4%; miR-21 reporter = 0.0%; FBPA coupling cs = -0.1
Listed for `Cc1cccc(N2CCN(C(=O)CCNS(=O)(=O)c3ccc4c(c3)CCN4C(=O)C3CC3)CC2C)c1` (stereo unspecified) → GALK inh = .; Giardia kill = .; uPA generation = .; B2AR arrestin = .; miR-21 reporter = 14.0%; FBPA coupling cs = .

(cont.)
Short forms – A = GALK inh; B = Giardia kill; C = uPA generation; D = B2AR arrestin; E = miR-21 reporter; F = FBPA coupling cs
26. O=C(N/N=C/C(Cl)=C/c1ccccc1)c1ccc2c(c1)OCO2
  A: .	B: 18.1	C: 6.31µM*	D: -0.6%	E: .	F: .
27. O=C(N/N=C/c1ccc2c(c1)OCO2)c1ccc2c(c1)OCO2
  A: -0.9%	B: 0.5	C: 2.5%	D: -0.9%	E: -15.1%	F: 1.4
28. CC(C)CN(CC(C)C)S(=O)(=O)c1ccc(C(=O)Nc2sc3c(c2C(N)=O)CCN(C(C)C)C3)cc1
  A: .	B: .	C: .	D: .	E: 11.5%	F: .
29. Cc1ccc2[nH]c(C)c(CC(=O)O)c2c1
  A: -3.8%	B: -8.6	C: 2.6%	D: -0.4%	E: 2.7%	F: -39.5*
30. Cc1[nH]c2ccc(C(C)C)cc2c1CC(=O)O
  A: 3.3%	B: -1.9	C: -0.9%	D: -0.7%	E: -6.4%	F: 1.5
31. Cc1ccc(S(=O)(=O)N2CCCCC2CCNC(=O)C(=O)NCc2ccco2)cc1 (stereo unspecified)
  A: .	B: -3.6	C: -18.8%	D: -0.4%	E: .	F: .
32. Cc1ccc(S(=O)(=O)N2CCCCC2CCNC(=O)C(=O)NCCc2ccco2)cc1 (stereo unspecified)
  A: .	B: -5.9	C: 1µM*	D: -0.3%	E: .	F: .
33. COc1ccc(OC)c2[nH]c(=O)c(CCNS(=O)(=O)c3ccc(C)cc3)cc12
  A: 3.4%	B: -8.2	C: -5.0%	D: -0.3%	E: -4.2%	F: -30.1*
34. Cc1ccc(C)c2[nH]c(=O)c(CCNS(=O)(=O)c3ccccc3)cc12
  A: 0.1%	B: -5.8	C: 23.5%	D: -0.3%	E: -15.9%	F: 0.0
35. COc1ccc(OC)c2[nH]c(=O)c(CCNS(=O)(=O)c3ccc(Cl)cc3)cc12
  A: 3.3%	B: -12.9	C: 0.9%	D: -0.1%	E: -6.4%	F: -33.1*
36. Cc1ccc(NS(=O)(=O)c2ccccc2)c2c1CC(C)(C)O2
  A: 2.5%	B: -17.6	C: 3.6%	D: 0.5%	E: -12.2%	F: -46.1*
37. Cc1cc(-c2ccc(NS(=O)(=O)c3ccccc3)c(C)c2)ccc1NS(=O)(=O)c1ccccc1
  A: .	B: -3.2	C: 14.0%	D: .	E: .	F: .
38. CCC(C)(C)c1ccc(OCCCC[n+]2cccc(C)c2C)c(C(C)(C)CC)c1
  A: -1.7%	B: -19.2	C: 8.91µM*	D: -1.0%	E: ?	F: 0.2
39. COc1ccc(Cl)cc1NC(=O)CSC1=Nc2ccccc2C2=NC(CC(=O)NC3CCCCC3)C(=O)N12 (stereo unspecified)
  A: .	B: .	C: .	D: .	E: 1.3%	F: .
40. COc1ccccc1Nc1cc2cc(Br)ccc2c(=O)[nH]1
  A: .	B: 4.1	C: 3.16µM*	D: .	E: .	F: .
41. COc1ccc2c(c1)c1c(c(=O)n(-c3cccc(Cl)c3)c(=O)n1CC(=O)NCC1CCCO1)n2C (stereo unspecified)
  A: .	B: .	C: .	D: .	E: 0.2%	F: .
42. CC(=O)N1c2ccc(S(=O)(=O)Nc3ccc(Cl)cc3C)cc2CC1C (stereo unspecified)
  A: .	B: .	C: .	D: .	E: 11.8%	F: .
43. CCn1c(SCC(=O)N2CCN(c3ccccc3)CC2)nnc1-c1c[nH]c2ccccc12
  A: 1.3%	B: -9.4	C: 7.94µM*	D: -1.0%	E: 22.5%	F: 1.0
44. Oc1ccccc1C1Nc2cccc3cccc(c23)N1
  A: -0.7%	B: -23.8	C: 5.0%	D: 0.4%	E: -3.7%	F: -34.5*
45. COc1ccccc1C1Nc2cccc3cccc(c23)N1
  A: -1.5%	B: 4.3	C: -0.4%	D: 0.1%	E: -16.4%	F: -11.4
46. O=C(CCl)Nc1ccc(N=Nc2ccccc2)cc1
  A: 0.0%	B: 1.0	C: 14.1µM*	D: 0.8%	E: 16.4%	F: -2.1
47. O=C(CCl)Nc1ccc(-c2ccccc2)cc1
  A: 1.9%	B: -12.6	C: ?	D: -0.2%	E: ?	F: 0.7
48. O=[N+]([O-])c1cccc(C2=N[C@@H](Cc3ccccc3)CO2)c1
  A: .	B: .	C: .	D: .	E: .	F: -0.2
49. Cc1ccc(C(=O)NC(=O)OCCn2c(C)cnc2[N+](=O)[O-])cc1
  A: 1.6%	B: -87.7*	C: 1.4%	D: -0.1%	E: -10.0%	F: 0.4
50. COc1ccccc1C(=O)NC(=O)OCCn1c(C)cnc1[N+](=O)[O-]
  A: 1.6%	B: -82.0*	C: 3.1%	D: 0.2%	E: -3.9%	F: -0.1
51. C=CCC(O)(C#Cc1ccccc1)c1ccccc1 (stereo unspecified)
  A: .	B: .	C: .	D: .	E: .	F: 8.5

High-throughput results: PubChem BioAssay, National Center for Advancing Translational Sciences (NCATS)
